{"source": "patent US6894033B2", "about": "“Combination therapies using vitamin B12 and therapeutic agents for treatment of viral, proliferative and inflammatory diseases” (Transition Therapeutics Inc., priority 2001, dated 2005)", "molecules": {"B1": {"name": "interferon-beta: interferon-beta 1a (REBIF) in the animal examples; interferon-beta of unstated type in Examples 8-9 (protein, UniProt P01574 22-187, looked up)", "Interferon beta": "MSYNLLGFLQRSSNFQCQKLLWQLNGRLEYCLKDRMNFDIPEEIKQLQQFQKEDAALTIYEMLQNIFAIFRQDSSSTGWNETIVENLLANVYHQINHLKTVLEEKLEKEDFTRGKLMSSLHLKRYYGRILHYLKAKEYSHCAWTIVRVEILRNFYFINRLTGYLRN"}}, "key": {"ND4 mouse model": {"test_system": "ND4 mouse model", "test": "Clinical signs in the ND4 demyelinating transgenic mouse model", "type": "in vivo", "procedure": "In this model, the severity of the clinical signs increased until a maximum around 6 months with animals dying around 8 to 9 months of age. Clinical signs assessed included general shaking, seizures, head jerk, hind limb and tail shiver, wobbly gait and limp tail. The scale of zero (absence) to four (constant and uncontrollable movements) was used for each of the clinical signs.\nMice (4 animals per group) were treated with vitamin B12 (cyanocobalamin) alone at a dose of 15 mg/kg; weekly and in combination with interferon-beta 1a (REBIF®). Interferon-beta 1a was administered alone and in combination with vitamin B12 at a dose of interferon-beta 1a of 5000 IU, tri-weekly. […]\nND4 mice were either (a) untreated or treated with (b) interferon-beta 1a (REBIF®) alone (5000 IU) or (c) 1000 IU of interferon-beta 1a and B12 (15 mg/kg), or (d) 2500 units of interferon-beta 1a and B12 (15 mg/kg) or (e) 5000 IU of interferon-beta 1a and B12 (15 mg/kg), three times a week for the duration of the experiment. […] The animals were evaluated twice a week for clinical signs and the scores were averaged on a weekly basis. […]\nThe severity of the clinical signs increase until a maximum around 6 months with animals dying around 8 to 9 months of age. Clinical signs assessed include general shaking, seizures, head jerk, hind limb and tail shiver, wobbly gait and limp tail. […]"}, "EAE mouse model": {"test_system": "EAE mouse model", "test": "Clinical signs in the EAE mouse model (SJL mice)", "type": "in vivo", "settings": "vitamin B12 (cyanocobalamin) 10 mg/kg daily, interferon-beta 1a 5000 IU daily"}, "GFAP [1]": {"test_system": "GFAP", "test": "GFAP in brain of ND4 mice (immunohistochemistry, slot blot of homogenates)", "type": "in vivo, mouse", "procedure": "(§1) ND4 mice were treated as described previously in Example 1. After the various treatments, the mice were sacrificed and brain sections removed for GFAP staining and quantitation. The brain region of hippocampus, adjacent to the dentate gyrus was fixed in formalin, paraffin-embedded and sectioned at 5 μm. Immunohistochemistry with anti-GFAP antibody was used to stain for GFAP. Glial fibrillary acidic protein was a protein expressed by astrocytes (particularly reactive astrocytes) and was used as a marker for these cells.\n(§2) In addition, quantification of GFAP within the brains of normal, ND4 untreated and ND4 treated mice was carried out to provide a more precise level of protein expression. Whole brain homogenates were assayed for GFAP by slot blot. Brains were homogenized in a buffer containing 50 mM Tris-HCl pH 7.6, 0.5 mM DTT, 1 mM EDTA, and 0.43 mM PMSF. The homogenate was centrifuged at 11000 rpm for 30 min at 4° C. The pellet was isolated and resuspended in a buffer containing 10 mM sodium phosphate pH 7.5, 2 mM DTT, 6 mM urea and 1 mM EDTA. Samples were loaded onto the slot blot apparatus (BioDot, Biorad) under vacuum. The blots were reacted with anti-GFAP antibodies and then a secondary antibody. The blots were developed and the relative amounts of each band quantified."}, "GFAP [2]": {"test_system": "GFAP", "test": "GFAP in brain of EAE mice (immunohistochemistry, slot blot of homogenates)", "type": "in vivo, mouse", "procedure": "as §1, with “EAE” for “ND4”, “2.” for “1.”\nas §2, with “EAE” for “ND4”"}, "[3]": {"test_system": "Human Hepatitis B Virus (HBV)", "test": "HBV DNA copies in HepG2.2.15 culture medium by Lightcycler real-time PCR", "type": "cell-based", "settings": "for Antiviral effect on HBV (HBV DNA copies): HepG2.2.15, 9 days, fraction", "procedure": "HepG2.2.15 cells, a cell line that was stably transfected with HBV genome, were cultured in RPMI-1640 with fetal bovine serum at either 2 or 4% final concentration and with no antibiotics. […] The medium was then discarded and replaced with 100 μl of culture medium containing hydroxocobalamin (a form of vitamin B12) alone (at various concentrations), interferon-beta alone (at various international units), and a mixture of varying doses of hydroxocobalamin (HC) and various doses of interferon-beta vs. HC. Triplicate samples were measured for each concentration. The cells were incubated at 37° C. for 9 days. Drug/medium was changed daily. On day 9, the culture media containing released HBV virions were harvested and used to extract HBV DNA.\nHBV DNA from drug-treated HepG2.2.15 cell culture media was extracted using QIAmp DNA mini kit—blood and body fluid spin column according to manufacturer's instructions. Briefly, 10 μl of QIAGEN proteinase K was added to 1.5 ml Eppendorf tube. 50 μl cell supernatant and 50 μl AL buffer were added to the tube. The samples were incubated at 56° C. water bath for 3 h. At the end of incubation, 50 μl ethanol was added to the sample. The mixture was transferred to a QIAamp spin column and centrifuged at 14000 rpm for 1 min. The filtrate was discarded. 50 μl Buffer AW1 was then added to the column and centrifuged at 14000 rpm for 1 min. Following washing and recentrifugation, DNA was eluted in 50 μl dH2O.\nHBV DNA was detected by real-time PCR using Lightcycler assay. The reaction was performed in 20 μl, comprising the following: 6.4/4.8 μl dH2O, 2 μl 25 mM MgCl2, 1 μl 10 μM sense primer, 1 μl 10 μM antisense primer, 8/1.6 μl LightCycler Probe (fluorescein-labeled, 5 μM), 0.8/1.6 μl LightCycler Probe 2 (LC Red 640-labeled, 10 μM), 2 μl LC FastStart DNA Master Hyb Probes, 1 μl uracil DNA glycosylase.\nPCR mix was aliquoted into glass capillaries and 5 μl DNA template was then added to the PCR mix. A range of HBV plasmid DNA (1×10^8, 1×10^7, 1×10^6, . . . , 1×10^2, 25 copies) was used as standards for quantitative analysis.\nThe antiviral effects of the test compounds were calculated using DNA copy numbers as an endpoint. Specifically, the antiviral activities were calculated based on the following formula: Antiviral effect=(Ccontrol−Ctest)/Ccontrol whereby the Ccontrol is the HBV DNA copies in the control wells (without drug); the Ctest is the HBV DNA copies in the test wells with a given concentration of a test compound.\nThe enhancing or antagonistic effect was analyzed mathematically using the median effect equation (Chou and Talalay, 1984) by computer software CalcuSyn (Biosoft, St. Louis). The range of the combination index (CI) is illustrated below in Table 6."}, "[4]": {"test_system": "Herpes Simplex Virus Type 2 (HSV-2)", "test": "CPE inhibition assay in MRC-5 cells, HSV-2", "type": "cell-based", "settings": "fraction"}, "[5]": {"test_system": "Vesticular Stomatitis Virus (VSV)", "type": "cell-based", "settings": "MRC-5; for Antiviral effect on VSV (CPE inhibition): fraction"}}, "note": "Read-outs that look alike come from different tables or passages of the source."}
{"molecule": "B1", "values": [{"measurement": "clinical signs of MS (FIG. 1)", "setting": "ND4 mouse model; ND4 mice, vitamin B12 (cyanocobalamin) 15 mg/kg weekly, interferon-beta 1a 5000 IU tri-weekly, from 3 months of age", "result": "attenuation of clinical signs"}, {"measurement": "Sum of Clinical Scores (+/−SD)", "setting": "ND4 mouse model; ND4 mouse at six months, interferon-beta 5000 IU alone, three times a week", "result": "21 +/− 4"}, {"measurement": "clinical signs of the inflammatory disease (FIG. 2)", "setting": "EAE mouse model", "result": "attenuation of clinical signs"}, {"measurement": "Relative Amount of GFAP (+/−SD)", "setting": "GFAP [1]; ND4 brain homogenates, interferon-beta 5000 IU/ml, Normal 1.0, untreated ND4 4.4", "result": "3.1 +/− 0.1"}, {"measurement": "GFAP staining, activated astrocytes and levels of GFAP (FIG. 4)", "setting": "GFAP [1]; ND4 mice treated as in Example 1", "result": "decreased"}, {"measurement": "Relative Amount of GFAP (+/−SD)", "setting": "GFAP [2]; EAE brain homogenates, interferon-beta 5000 IU/ml, Normal 1.0, untreated EAE 4.2", "result": "2.0 +/− 0.5"}, {"measurement": "reduction of the amounts of GFAP", "setting": "GFAP [2]; EAE mice treated as in Example 2", "result": "~50", "unit": "%"}, {"measurement": "viral activity (HBV)", "setting": "[3]; HepG2.2.15, vitamin B12 = hydroxocobalamin (HC)", "result": "decreased"}, {"measurement": "Antiviral effect on HBV (HBV DNA copies)", "setting": "[3]; interferon-beta 50 IU/ml", "result": 0.569}, {"measurement": "Antiviral effect on HBV (HBV DNA copies)", "setting": "[3]; interferon-beta 100 IU/ml", "result": 0.746}, {"measurement": "Antiviral effect on HBV (HBV DNA copies)", "setting": "[3]; interferon-beta 500 IU/ml", "result": 0.773}, {"measurement": "Antiviral effect on HBV (HBV DNA copies)", "setting": "[3]; interferon-beta 1000 IU/ml", "result": 0.823}, {"measurement": "Antiviral effect on HSV-2 (CPE inhibition)", "setting": "[4]; interferon 5 IU/ml", "result": 0.164}, {"measurement": "Antiviral effect on HSV-2 (CPE inhibition)", "setting": "[4]; interferon 10 IU/ml", "result": 0.136}, {"measurement": "Antiviral effect on HSV-2 (CPE inhibition)", "setting": "[4]; interferon 50 IU/ml", "result": 0.314}, {"measurement": "Antiviral effect on HSV-2 (CPE inhibition)", "setting": "[4]; interferon 100 IU/ml", "result": 0.281}, {"measurement": "Antiviral effect on HSV-2 (CPE inhibition)", "setting": "[4]; interferon 500 IU/ml", "result": 0.265}, {"measurement": "Anti-viral activity (protection of CPE) / viral activity, VSV", "setting": "[5]; vitamin B12 = hydroxocobalamin (HC)", "result": "significantly increased"}, {"measurement": "Antiviral effect on VSV (CPE inhibition)", "setting": "[5]; interferon 5 IU/ml", "result": 0.826}, {"measurement": "Antiviral effect on VSV (CPE inhibition)", "setting": "[5]; interferon 10 IU/ml", "result": 0.985}, {"measurement": "Antiviral effect on VSV (CPE inhibition)", "setting": "[5]; interferon 50 IU/ml", "result": 0.758}, {"measurement": "Antiviral effect on VSV (CPE inhibition)", "setting": "[5]; interferon 100 IU/ml", "result": 0.768}, {"measurement": "Antiviral effect on VSV (CPE inhibition)", "setting": "[5]; interferon 500 IU/ml", "result": 0.956}]}
